Like-named read-outs stand apart in the source and are kept apart here.
Assays:
[1] = target: HexB (Homo sapiens, UniProt P07686); experiment: HexB inhibition (purified isozyme); format: biochemical
[2] = target: Hex A (Homo sapiens, UniProt P06865+P07686); experiment: Hex A inhibition (IC50 from dose response curves of Hex A residual activity);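 also: remaining Hex A enzyme activity recorded across rising inhibitor doses, with dose response curves run at pH 6.5 and again at pH 4.5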
[3] = target: mutant Hex A (Homo sapiens, UniProt P06865+P07686); format: cell-based; settings: Hex A rescue, determined from graphs of FIGS. 5-7
Method: Using the graphs of FIGS. 5-7, the EC50 values for Hex A rescue were determined as well as the maximum increase and range of increase in Hex A activity. These values are tabulated in Table 2, together with the IC50 values for Hex A inhibition that were determined in Example 3.

Chains of the proteins cited; added tags and fusions are not shown. Lines headed by an entry give the natural chain unless they say otherwise; changes in a name come on top. A line that says so, or that is headed by a name, gives the form on record, which may keep a tag or linker. Residues count along the entry.
UniProt P07686, 315-556 limits assumed: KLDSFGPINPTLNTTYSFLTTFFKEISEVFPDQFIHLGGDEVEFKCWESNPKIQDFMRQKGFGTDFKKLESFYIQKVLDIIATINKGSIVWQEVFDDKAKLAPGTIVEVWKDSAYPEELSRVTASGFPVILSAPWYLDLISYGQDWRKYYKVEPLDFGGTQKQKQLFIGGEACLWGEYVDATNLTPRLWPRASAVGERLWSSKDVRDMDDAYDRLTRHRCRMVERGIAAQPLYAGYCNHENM
UniProt P07686, 122-311 limits assumed: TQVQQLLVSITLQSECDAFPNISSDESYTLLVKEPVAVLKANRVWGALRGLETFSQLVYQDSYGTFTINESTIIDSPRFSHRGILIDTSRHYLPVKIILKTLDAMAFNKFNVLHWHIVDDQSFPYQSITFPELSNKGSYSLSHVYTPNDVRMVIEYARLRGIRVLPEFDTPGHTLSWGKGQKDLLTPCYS
UniProt P07686, other isoform, or with tags, fused parts or gaps: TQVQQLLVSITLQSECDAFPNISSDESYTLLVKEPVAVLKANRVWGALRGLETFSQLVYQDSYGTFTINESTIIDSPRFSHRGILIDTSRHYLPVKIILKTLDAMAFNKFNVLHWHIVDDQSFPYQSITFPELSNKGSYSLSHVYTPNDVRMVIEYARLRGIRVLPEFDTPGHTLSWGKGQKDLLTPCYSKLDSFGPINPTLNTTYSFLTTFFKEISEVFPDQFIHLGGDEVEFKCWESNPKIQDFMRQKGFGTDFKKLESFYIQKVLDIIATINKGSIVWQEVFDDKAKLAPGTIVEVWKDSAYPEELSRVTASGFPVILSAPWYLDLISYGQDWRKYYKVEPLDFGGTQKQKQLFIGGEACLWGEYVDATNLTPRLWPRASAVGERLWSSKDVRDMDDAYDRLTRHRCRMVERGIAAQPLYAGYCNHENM
UniProt P06865, 89-529: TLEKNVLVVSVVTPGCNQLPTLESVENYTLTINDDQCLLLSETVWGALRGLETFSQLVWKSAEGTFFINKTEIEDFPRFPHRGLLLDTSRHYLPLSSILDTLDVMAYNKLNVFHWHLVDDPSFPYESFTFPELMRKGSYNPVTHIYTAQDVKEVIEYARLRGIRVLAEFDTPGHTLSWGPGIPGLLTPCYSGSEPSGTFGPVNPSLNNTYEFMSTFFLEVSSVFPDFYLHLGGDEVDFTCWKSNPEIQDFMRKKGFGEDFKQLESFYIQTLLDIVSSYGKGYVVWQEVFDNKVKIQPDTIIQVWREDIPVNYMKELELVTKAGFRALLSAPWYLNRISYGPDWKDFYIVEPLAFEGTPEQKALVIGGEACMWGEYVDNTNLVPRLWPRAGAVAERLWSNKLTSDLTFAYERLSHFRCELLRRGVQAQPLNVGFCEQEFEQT
UniProt P06865, other isoform, or with tags, fused parts or gaps: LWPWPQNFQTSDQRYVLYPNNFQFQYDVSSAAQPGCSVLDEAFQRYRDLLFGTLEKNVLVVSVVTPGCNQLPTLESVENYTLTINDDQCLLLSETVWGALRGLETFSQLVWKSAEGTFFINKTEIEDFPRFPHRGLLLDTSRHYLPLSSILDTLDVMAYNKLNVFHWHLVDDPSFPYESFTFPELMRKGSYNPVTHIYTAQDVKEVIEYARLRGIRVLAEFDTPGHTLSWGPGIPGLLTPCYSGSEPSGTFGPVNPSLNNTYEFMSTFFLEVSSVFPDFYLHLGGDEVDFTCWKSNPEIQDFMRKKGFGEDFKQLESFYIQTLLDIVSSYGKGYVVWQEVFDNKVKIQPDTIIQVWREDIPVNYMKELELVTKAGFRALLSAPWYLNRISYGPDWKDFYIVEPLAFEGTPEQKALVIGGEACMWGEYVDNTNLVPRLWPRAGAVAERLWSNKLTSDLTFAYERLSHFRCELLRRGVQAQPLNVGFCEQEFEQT

[4] = target: T1, HexA wt (Homo sapiens, UniProt P06865+P07686); experiment: Inhibition of HexA enriched from normal fibroblasts; format: biochemical; settings: pH 4.5
T1 construct: endogenous in cells; host or cells: normal fibroblasts (HexA isozyme enriched from them)

`CCc1nc(N)nc(N)c1-c1ccc(Cl)cc1` [PYR, Pyrimethamine, reference compound] gave an IC50 ([1]; pH 4.5, 1.6 mM substrate, read-out: IC50 HexB pH 4.5) of 9.1 µM, an IC50 ([1]; pH 7, read-out: IC50 HexB pH 7) of 4.5 µM and an IC50 ([2]; IC50 (μM ± Err), Hex A inhibition, values determined in Example 3, pH not given) of 11 ± 1 µM. It also gave an IC50 ([2]; IC50 (μM), without error, pH not stated) of 10.8 µM, an IC50 ([2]; IC50, pH 4.5, NINDS library screen) of roughly 8 µM and an IC50 ([2]; read-out: IC50 HexA pH 7, purified HexA, pH 7) of 3.1 µM. The IC50 ([2]; without error, pH not stated) was 14 µM, the EC50 [3] was 8.11 µM and the EC50 ([3]; listed as PYR (vsa7)) was 3.62 µM. The IC50 [4] was 14 µM.
